Where a name gives a salt, the structure may show the parent alone.
What was measured:
[1] = target: 5-hydroxytryptamine receptor 1A (Homo sapiens, UniProt P08908)
[2] = target: Kappa-type opioid receptor (Cavia porcellus, UniProt P41144)
[3] = target: Nitric oxide synthase, brain (Rattus norvegicus, UniProt P29476)
[4] = target: Gamma-aminobutyric acid (GABA) B receptor 1 (Rattus norvegicus, UniProt Q6MFX8)
[5] = target: 5-hydroxytryptamine receptor 1D (Homo sapiens, UniProt P28221)
[6] = target: 5-hydroxytryptamine receptor 7 (Homo sapiens, UniProt P34969)
[7] = target: Melatonin receptor type 1A (Homo sapiens, UniProt P48039)
[8] = target: Acetylcholine receptor subunit alpha (Homo sapiens, UniProt P02708)
[9] = target: T1, Adenylate cyclase type 3 (Rattus norvegicus, UniProt P21932)
T1 sequence (P21932 whole entry): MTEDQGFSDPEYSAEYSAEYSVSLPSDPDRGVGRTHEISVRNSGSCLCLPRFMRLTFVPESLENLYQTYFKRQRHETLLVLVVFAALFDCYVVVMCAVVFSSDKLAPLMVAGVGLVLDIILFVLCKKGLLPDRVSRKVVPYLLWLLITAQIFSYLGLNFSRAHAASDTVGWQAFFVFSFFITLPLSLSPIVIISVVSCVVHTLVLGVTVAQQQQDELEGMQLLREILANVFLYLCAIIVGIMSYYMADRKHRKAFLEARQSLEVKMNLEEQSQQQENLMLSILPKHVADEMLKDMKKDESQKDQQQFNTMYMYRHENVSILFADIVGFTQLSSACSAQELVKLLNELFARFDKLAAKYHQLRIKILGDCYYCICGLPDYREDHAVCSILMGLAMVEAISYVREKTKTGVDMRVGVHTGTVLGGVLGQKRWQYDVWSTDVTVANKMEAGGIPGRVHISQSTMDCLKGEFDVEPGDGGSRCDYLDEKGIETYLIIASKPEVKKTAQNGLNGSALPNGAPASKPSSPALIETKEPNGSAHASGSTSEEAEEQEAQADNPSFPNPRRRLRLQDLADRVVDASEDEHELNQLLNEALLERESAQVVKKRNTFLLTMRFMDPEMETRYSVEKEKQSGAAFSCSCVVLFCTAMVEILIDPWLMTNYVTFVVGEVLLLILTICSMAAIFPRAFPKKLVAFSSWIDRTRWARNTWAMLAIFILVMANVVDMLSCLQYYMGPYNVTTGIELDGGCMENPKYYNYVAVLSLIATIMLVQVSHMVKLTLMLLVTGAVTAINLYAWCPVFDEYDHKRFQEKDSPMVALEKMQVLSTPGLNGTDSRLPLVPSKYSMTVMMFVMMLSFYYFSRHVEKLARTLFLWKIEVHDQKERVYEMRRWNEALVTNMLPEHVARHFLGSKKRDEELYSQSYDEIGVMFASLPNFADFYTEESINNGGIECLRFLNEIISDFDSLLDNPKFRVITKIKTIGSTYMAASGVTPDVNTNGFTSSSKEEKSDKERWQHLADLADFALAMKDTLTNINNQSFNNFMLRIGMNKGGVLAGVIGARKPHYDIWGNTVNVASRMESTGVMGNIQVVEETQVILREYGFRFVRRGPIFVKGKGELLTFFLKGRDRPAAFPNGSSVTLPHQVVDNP

Sequences of proteins named here, by UniProt entry; tags and fusion partners are left off. A change or cut given only in a name is not applied to a line headed by its entry. A line that says so, or that is headed by a name, gives the form on record, which may keep a tag or linker.
UniProt P41144: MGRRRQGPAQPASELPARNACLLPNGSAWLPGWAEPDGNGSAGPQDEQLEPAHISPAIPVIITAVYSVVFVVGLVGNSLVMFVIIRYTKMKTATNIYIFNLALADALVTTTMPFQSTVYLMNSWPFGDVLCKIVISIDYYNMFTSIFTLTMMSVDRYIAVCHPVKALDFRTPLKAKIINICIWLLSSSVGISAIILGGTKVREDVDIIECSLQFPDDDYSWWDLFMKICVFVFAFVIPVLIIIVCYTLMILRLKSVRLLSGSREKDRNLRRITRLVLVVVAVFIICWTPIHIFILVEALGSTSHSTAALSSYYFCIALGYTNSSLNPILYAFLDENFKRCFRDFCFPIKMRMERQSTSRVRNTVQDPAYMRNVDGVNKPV
UniProt P29476, whole entry: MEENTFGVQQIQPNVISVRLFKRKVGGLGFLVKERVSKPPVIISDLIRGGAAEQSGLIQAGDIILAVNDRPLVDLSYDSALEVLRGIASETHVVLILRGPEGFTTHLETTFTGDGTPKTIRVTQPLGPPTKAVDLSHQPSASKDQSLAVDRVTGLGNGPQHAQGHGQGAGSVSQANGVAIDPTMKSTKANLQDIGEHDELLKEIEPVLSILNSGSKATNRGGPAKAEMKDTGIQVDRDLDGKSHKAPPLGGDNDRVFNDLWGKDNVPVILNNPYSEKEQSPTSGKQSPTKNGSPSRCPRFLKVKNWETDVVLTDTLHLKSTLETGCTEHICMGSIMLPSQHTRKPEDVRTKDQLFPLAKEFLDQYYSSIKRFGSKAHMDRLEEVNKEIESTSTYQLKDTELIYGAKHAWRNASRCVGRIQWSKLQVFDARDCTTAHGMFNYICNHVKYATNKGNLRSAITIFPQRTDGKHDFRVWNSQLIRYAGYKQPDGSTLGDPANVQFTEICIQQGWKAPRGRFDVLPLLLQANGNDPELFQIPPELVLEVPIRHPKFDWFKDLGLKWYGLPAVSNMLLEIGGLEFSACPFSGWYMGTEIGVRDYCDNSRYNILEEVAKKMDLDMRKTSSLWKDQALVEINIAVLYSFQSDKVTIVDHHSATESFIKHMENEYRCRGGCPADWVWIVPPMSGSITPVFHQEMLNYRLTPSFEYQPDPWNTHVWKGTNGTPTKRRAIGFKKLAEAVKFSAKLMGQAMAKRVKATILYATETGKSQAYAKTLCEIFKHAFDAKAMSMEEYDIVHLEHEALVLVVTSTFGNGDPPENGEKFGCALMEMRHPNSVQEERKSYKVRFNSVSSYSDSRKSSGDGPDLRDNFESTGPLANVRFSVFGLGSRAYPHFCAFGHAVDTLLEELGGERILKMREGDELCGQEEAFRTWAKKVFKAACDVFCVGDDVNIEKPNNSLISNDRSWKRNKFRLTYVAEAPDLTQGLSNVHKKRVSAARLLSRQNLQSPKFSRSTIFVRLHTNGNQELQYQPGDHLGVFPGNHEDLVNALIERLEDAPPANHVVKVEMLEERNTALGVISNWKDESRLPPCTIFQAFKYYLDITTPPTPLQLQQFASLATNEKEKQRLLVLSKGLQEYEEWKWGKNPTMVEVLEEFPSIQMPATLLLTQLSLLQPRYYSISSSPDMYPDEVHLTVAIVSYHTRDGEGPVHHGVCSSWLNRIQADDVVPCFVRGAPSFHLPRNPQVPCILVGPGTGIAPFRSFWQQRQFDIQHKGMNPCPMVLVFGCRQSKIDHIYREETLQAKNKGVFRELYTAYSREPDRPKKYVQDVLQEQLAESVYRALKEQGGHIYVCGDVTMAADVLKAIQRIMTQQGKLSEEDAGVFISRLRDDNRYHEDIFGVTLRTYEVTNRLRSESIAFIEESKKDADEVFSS
UniProt P28221: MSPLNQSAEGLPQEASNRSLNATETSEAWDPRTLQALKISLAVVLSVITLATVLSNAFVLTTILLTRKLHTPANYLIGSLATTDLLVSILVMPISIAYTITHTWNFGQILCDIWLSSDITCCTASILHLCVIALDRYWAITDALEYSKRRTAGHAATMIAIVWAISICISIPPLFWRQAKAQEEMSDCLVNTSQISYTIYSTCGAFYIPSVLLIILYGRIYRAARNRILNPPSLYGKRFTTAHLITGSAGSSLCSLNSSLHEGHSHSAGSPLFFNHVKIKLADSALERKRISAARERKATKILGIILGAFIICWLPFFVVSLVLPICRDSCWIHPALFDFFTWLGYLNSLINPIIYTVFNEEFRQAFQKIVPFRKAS
UniProt P34969, whole entry: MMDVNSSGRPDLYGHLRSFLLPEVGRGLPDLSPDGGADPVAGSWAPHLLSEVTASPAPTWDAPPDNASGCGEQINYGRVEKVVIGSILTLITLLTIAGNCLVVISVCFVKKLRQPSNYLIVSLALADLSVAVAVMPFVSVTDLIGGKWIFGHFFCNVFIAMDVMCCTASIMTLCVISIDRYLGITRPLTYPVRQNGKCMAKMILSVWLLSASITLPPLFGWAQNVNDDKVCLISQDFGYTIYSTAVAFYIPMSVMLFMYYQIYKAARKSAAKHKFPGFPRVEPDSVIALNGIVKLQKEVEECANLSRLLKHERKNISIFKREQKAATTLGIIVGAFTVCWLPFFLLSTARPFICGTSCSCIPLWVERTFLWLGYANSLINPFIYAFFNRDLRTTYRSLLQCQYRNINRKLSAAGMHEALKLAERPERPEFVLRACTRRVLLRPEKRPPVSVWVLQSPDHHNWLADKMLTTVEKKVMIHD
UniProt P30545, as listed by the source: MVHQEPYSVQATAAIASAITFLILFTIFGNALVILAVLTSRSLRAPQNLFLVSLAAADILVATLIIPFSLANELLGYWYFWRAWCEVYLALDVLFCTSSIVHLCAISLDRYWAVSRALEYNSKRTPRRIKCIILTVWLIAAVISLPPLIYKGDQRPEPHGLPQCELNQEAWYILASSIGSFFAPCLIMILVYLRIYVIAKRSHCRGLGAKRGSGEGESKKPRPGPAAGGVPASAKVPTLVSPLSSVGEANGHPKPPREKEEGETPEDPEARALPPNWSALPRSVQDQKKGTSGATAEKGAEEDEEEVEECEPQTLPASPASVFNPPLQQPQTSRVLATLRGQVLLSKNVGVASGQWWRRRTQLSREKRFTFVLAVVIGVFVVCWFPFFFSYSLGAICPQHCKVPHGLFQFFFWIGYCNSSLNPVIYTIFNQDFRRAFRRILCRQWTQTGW
UniProt Q02294, whole entry: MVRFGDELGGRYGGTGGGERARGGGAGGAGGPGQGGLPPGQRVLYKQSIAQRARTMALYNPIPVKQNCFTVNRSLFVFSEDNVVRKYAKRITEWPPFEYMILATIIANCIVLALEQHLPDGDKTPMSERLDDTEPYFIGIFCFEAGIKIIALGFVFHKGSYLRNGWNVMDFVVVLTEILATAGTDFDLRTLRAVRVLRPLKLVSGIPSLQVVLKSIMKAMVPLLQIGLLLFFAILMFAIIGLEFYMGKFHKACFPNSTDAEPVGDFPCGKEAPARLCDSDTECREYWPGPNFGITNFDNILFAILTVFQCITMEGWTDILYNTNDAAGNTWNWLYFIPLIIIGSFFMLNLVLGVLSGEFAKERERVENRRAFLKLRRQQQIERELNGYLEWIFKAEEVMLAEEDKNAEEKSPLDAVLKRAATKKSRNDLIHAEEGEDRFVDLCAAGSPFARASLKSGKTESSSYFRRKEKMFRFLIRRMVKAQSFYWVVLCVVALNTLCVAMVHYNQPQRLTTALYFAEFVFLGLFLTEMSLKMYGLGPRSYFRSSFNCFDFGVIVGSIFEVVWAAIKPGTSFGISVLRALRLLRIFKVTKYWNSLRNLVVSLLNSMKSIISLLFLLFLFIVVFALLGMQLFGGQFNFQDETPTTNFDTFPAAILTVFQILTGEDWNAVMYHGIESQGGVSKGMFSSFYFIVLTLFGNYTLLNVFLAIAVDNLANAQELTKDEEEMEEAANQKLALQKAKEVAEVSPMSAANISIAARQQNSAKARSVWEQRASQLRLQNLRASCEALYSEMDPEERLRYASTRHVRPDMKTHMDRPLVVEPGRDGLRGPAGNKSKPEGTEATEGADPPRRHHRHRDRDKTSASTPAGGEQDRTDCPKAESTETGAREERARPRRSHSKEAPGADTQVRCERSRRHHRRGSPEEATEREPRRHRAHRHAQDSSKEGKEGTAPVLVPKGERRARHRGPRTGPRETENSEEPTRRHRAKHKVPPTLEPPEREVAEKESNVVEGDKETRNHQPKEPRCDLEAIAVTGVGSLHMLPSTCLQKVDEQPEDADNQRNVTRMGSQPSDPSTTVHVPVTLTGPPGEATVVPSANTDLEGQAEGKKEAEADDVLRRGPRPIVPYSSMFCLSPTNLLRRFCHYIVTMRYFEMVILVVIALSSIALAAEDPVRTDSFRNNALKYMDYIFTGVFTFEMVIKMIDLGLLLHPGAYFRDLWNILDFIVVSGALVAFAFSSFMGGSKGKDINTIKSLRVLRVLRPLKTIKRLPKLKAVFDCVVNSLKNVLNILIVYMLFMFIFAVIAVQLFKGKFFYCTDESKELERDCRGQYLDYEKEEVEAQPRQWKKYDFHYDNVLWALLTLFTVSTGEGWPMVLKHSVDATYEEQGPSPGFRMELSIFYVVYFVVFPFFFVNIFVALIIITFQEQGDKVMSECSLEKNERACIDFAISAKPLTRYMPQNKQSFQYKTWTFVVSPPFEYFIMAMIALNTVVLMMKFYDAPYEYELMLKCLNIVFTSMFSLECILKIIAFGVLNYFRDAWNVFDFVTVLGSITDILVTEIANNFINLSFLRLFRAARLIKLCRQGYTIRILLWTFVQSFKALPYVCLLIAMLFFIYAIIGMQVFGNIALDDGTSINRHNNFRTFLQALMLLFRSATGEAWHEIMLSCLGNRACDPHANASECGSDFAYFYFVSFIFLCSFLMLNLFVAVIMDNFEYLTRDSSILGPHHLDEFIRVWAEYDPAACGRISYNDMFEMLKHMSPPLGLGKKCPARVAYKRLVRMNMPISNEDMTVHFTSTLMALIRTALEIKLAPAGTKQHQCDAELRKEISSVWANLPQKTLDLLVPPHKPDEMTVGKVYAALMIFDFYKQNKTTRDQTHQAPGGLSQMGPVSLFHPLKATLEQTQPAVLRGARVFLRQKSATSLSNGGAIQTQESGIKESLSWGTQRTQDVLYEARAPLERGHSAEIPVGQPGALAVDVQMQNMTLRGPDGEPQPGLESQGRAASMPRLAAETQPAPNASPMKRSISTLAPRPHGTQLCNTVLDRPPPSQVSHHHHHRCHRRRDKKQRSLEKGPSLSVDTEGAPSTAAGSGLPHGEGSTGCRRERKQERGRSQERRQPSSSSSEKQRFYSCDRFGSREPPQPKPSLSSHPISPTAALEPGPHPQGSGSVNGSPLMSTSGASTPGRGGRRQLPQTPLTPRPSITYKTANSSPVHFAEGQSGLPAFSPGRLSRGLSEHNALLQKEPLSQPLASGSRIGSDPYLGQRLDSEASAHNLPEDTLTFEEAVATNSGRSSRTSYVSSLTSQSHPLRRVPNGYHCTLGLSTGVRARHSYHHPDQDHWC
UniProt P08913, whole entry: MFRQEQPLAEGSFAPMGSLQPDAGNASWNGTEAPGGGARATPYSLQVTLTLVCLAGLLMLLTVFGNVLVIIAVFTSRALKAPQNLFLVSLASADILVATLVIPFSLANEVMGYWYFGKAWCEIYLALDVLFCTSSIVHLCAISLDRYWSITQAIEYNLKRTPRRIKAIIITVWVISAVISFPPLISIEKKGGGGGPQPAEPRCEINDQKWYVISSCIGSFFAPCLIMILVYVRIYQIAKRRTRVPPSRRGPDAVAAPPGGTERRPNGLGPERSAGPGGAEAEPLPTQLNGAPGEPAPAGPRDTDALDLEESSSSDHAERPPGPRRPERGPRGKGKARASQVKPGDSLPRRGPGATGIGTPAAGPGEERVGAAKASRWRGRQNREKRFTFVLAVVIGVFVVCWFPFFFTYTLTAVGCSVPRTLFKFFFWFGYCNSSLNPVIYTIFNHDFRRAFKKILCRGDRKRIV
UniProt P23975, whole entry: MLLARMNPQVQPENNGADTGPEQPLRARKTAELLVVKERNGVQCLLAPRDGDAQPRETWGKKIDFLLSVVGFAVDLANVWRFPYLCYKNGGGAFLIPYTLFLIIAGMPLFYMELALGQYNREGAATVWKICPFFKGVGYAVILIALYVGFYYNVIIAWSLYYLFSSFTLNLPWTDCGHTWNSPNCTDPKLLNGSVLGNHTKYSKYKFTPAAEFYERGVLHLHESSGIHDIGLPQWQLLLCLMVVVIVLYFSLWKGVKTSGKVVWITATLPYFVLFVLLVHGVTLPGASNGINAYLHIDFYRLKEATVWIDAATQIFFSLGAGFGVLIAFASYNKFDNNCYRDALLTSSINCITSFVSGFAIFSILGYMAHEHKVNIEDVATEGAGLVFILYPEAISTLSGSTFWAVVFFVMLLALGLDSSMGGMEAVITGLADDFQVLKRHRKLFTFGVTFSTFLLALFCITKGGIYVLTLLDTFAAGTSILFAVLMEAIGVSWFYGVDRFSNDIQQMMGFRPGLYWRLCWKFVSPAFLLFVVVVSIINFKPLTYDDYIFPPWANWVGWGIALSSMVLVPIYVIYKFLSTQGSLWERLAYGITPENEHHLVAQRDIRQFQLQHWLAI

[10] = target: Alpha-2B adrenergic receptor (Mus musculus, UniProt P30545)
[11] = target: Voltage-dependent N-type calcium channel subunit alpha-1B (Rattus norvegicus, UniProt Q02294)
[12] = target: T2, Olfactory receptor 145 (Mus musculus, UniProt Q60882)
T2 sequence (Q60882 whole entry): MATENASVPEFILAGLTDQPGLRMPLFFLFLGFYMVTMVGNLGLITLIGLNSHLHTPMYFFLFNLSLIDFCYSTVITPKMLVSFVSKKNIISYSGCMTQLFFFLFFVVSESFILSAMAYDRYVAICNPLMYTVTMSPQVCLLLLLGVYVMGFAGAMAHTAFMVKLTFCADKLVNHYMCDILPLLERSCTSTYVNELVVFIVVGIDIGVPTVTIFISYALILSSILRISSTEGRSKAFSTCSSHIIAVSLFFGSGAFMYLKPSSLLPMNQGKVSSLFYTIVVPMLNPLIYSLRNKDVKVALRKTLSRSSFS

[13] = target: Glutamate receptor ionotropic, kainate 1 (Rattus norvegicus, UniProt P22756)
[14] = target: Alpha-2A adrenergic receptor (Homo sapiens, UniProt P08913)
[15] = target: Sodium-dependent noradrenaline transporter (Homo sapiens, UniProt P23975)

SMILES | Ki [1] | Ki [2] | Ki [3] | Ki [4] | Ki [5] | Ki [6] | Ki [7] | Ki [8] | Ki [9] | Ki [10] | Ki [11] | Ki [12] | Ki [13] | Ki [14] | Ki [15]
CNCCC(Oc1ccccc1C)c1ccccc1 (stereo not given) [Methyl-(3-phenyl-3-o-tolyloxy-propyl)-amine(tomoxetine)] | 1 µM | 1 µM | 1 µM | 1 µM | 1 µM | 1 µM | 1 µM | 1 µM | 1 µM | 1 µM | 1 µM | 1 µM | 1 µM | 1 µM | 
CC(NC(C)(C)C)C(=O)c1cccc(Cl)c1 (stereo not given) [BUPROPION HYDROCHLORIDE] |  |  |  |  |  |  |  |  |  |  |  |  |  |  | > 10 µM

Reference: BindingDB's records for doi:10.1016/S0893-133X(02)00346-9 (Eli Lilly, 2002)
